Results from patent publication US20040242687A1, “Thrombus/thrombogenesis inhibitors” (priority 2001, published 2004).
Where two headings read alike, the source gives them in different places.

Test system: patients with transient cerebral ischemic attack (TIA) / cerebral infarction
Protocol: The present invention will be explained according to the following examples in more detail. However, the scope of the invention is not limited to these examples.
A person. They occurred transient cerebral ischemic attack (TIA). From three days after the onset, treatment with 160 mg/day of Cataclot (Ono Pharmaceutical Co., Ltd.) was started and it was continued for 2 weeks.
A person. They occurred TIA.
A person. They occurred TIA. From three days after the onset, treatment with 81 mg/day of Kids Bufferin (Lion Corporation) was started and this treatment was continued for about one month.
(§1) A person. They occurred cerebral infarction.
A person. They occurred cerebral infarction and, ten months after the occurrence of TIA.
as §1
A person. They occurred cerebral infarction. […] From that day of the onset of TIA, they were hospitalized for one week and subjected to intravenous drip containing 1 g of Nicholin H (Takeda Chemical Industries, Ltd.) and administration of 300 mg/day of Panaldine (Daiichi Pharmaceutical Co., Ltd.).
A person. They occurred cerebral infarction. […] They occurred TIA two years after the onset of cerebral infarction. From that day of the onset of TIA, administration of 200 mg/day of Panaldine (Daiichi Pharmaceutical Co., Ltd.) and, in addition, 162 mg/day of Kids Bufferin (Lion Corporation) was started.
A person. They occurred cerebral infarction. […] Immediately after the recurrence, they were treated with fluid for supplementation, urokinase and 300 mg/day of Panaldine (Daiichi Pharmaceutical Co., Ltd.).

Measured: side effects

COc1cccc(CCc2ccccc2OCC(CN(C)C)OC(=O)CCC(=O)O)c1.Cl (racemic) [sarpogrelate hydrochloride, (±)-1-[O-[2-(m-methoxyphenyl)ethyl]phenoxy]-3-(dimethylamino)-2-propyl hydrogensuccinate hydrochloride]
not observed: 75 mg/day, 337 days, single patients | 150 mg/day, 337 days, single patients | 150 mg/day, 496 days, single patient | 300 mg/day, 337 days, single patients
